Experimental findings from patent publication US20230303570A1, “KINASE INHIBITORS AND USES THEREOF” (ABM Therapeutics Corporation, priority 2020, published 2023) are described below.

By UniProt entry, the sequences of proteins in these tests, tags left out.
UniProt Q92918, whole entry: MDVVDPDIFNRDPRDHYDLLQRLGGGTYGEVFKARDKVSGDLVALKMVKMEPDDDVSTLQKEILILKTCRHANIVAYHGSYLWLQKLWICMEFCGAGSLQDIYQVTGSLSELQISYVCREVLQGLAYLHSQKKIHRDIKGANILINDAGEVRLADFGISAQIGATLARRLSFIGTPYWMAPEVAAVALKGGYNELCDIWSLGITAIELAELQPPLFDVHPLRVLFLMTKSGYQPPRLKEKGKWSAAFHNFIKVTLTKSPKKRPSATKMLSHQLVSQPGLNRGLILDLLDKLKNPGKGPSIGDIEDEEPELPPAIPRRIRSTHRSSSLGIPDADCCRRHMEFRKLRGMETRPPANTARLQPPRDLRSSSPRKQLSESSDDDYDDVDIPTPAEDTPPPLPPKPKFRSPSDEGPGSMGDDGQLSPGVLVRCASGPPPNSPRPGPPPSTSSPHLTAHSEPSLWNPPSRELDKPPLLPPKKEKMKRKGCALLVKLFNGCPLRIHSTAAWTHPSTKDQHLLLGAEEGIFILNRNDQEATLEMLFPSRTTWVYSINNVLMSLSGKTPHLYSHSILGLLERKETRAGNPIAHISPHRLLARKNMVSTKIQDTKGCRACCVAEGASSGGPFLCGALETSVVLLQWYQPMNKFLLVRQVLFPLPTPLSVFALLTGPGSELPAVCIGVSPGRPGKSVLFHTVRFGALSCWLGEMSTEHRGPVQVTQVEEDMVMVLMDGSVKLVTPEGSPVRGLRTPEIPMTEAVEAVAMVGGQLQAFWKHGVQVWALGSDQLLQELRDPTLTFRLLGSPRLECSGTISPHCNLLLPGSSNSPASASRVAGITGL

In the assay the target is HPK1 (MAP4K1) (Homo sapiens, UniProt Q92918). Briefly: HPK1 (MAP4K1) kinase Lantha screen assay. The settings on record: read-out: HPK1 IC50.

Structures are written as SMILES.

On to `Cc1ccc(NC(=O)c2cc(C(F)(F)F)ccn2)cc1C1=Cc2cnc(-n3nccc3N)nc2N2CCN=C12`, for which the 50% inhibitory concentration (IC50) (usually the point on the concentration scale where inhibition reaches its midpoint) was 0.1 to 10 µM.
